Experimental data reported in patent US8232270B2, “Bivalent (−)-meptazinol compounds and/or their salts, and their preparation and futilization” (priority 2006, dated 2012).

Protein sequences, listed by entry. Tags and fused reporters are not part of them. Residues count along the entry.
UniProt P22303, 32-614: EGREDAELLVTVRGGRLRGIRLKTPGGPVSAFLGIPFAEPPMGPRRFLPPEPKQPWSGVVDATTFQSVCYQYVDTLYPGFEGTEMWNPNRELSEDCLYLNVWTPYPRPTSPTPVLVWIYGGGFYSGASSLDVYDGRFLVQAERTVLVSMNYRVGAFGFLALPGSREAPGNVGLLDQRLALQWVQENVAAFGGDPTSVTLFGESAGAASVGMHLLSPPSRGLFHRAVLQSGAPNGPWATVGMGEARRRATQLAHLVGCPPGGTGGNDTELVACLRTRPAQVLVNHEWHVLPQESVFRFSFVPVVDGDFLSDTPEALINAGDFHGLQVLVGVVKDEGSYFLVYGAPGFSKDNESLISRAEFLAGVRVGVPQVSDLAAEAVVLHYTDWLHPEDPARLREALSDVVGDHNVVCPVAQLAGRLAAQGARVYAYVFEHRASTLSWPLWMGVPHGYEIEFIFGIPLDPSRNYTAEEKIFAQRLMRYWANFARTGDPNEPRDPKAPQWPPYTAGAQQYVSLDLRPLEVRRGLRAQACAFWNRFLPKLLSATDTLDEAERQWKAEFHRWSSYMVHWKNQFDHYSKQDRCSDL

Biological target: T1, AChE-induced Aβ (1-40) aggregation (human recombinant AChE) (Homo sapiens, UniProt P22303)
T1 construct: purchased Sigma-Aldrich
Assay: Inhibition of AChE-induced Aβ aggregation, thioflavin T fluorescence
Assay type: biochemical
Conditions: extrapolated from inhibition curves; read-out: IC50 ± SEM, AChE-induced Aβ aggregation
Method: Aliquots of 2 μL Aβ (1-40) peptide (Biosource), lyophilized from 2 mg/mL HFIP solution and dissolved in DMSO, were incubated for 48 h at room temperature in 0.215 M sodium phosphate buffer (pH 8.0) at a concentration of 230 μM. For coincubation experiments, aliquots (16 μL) of human recombinant AChE (Sigma-Aldrich) (final concentration of 2.3 μM) and AChE in the presence of 2 μL of the tested inhibitors were added. Each assay was run in duplicate. To quantify amyloid fibril formation, the thioflavin T fluorescence method was then applied.
After incubation, the samples containing Aβ, Aβ plus AChE, or Aβ plus AChE in the presence of inhibitors were diluted with 50 mM glycine-NaOH buffer (pH 8.5) containing 1.5 μM thioflavin T (Sigma-Aldrich) to a final volume of 2.0 mL. Fluorescence was monitored with excitation at 446 nm and emission at 490 nm. The percent inhibition of the AChE-induced aggregation due to the presence of increasing concentrations of the inhibitor was calculated by the following expression: 100−(IFi/IFo×100), where IFi and IFo were the fluorescence intensities obtained for Aβ plus AChE in the presence and in the absence of inhibitor, respectively, after subtracting the fluorescence of respective blanks. Inhibition curves and linear regression parameters were obtained for each compound, and the IC50 was extrapolated.

## CC[N+](C)(CC)CCC[n+]1c(-c2ccccc2)c2cc(N)ccc2c2ccc(N)cc21 [Propidium iodine, reference compound]
  IC50: 159 µM
